Data as given in PubChem BioAssay AID588334 (Broad Institute, 2011).
Only a part is listed here, and it is no random draw. Activity calls are given as the source filed them.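 How the source made its calls: active means mean activation of at least 80% with every replicate also reaching 80%; inconclusive means mean reaches 80% but some replicate falls short; inactive means the rest.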

Test: MITF-driven TRPM1 luciferase induction in melanoma cells – cell-based, SK-MEL-5, single point, primary screen (AID 588334);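 further: 0% = neutral control wells and 100% = parthenolide positive control wells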
Conditions: SK-MEL-5 TRPM1-promoter luciferase, 24 h; at 12.5 µM; active compounds read high; % of positive control, neutral wells = 0

| SMILES | activation |
| --- | --- |
| CCOP(=O)(Nc1ccc(C)cn1)OCC | inactive: -9.73% |
| CC(C)/C=N\N=C(\N)N[N+](=O)[O-] | inactive: -4.77% |
| CN(C(=O)Cc1ccc(Cl)c(Cl)c1)[C@@H]1CCCC[C@H]1N1CCCC1 | inactive: 7.17% |
| CC1(CBr)Cn2c(nc3ccccc3c2=O)S1 (stereo not drawn) | inactive: -1.77% |
| COc1ccccc1CNC(=O)COC(=O)C(O)(c1ccccc1)c1ccccc1 | inactive: 7.6% |
| O=C(COc1ccccc1)OC1CN2CCC1CC2 (stereo not drawn) | inactive: -6.09% |
| O=C(Nc1ccncc1[N+](=O)[O-])c1ccc([N+](=O)[O-])cc1[N+](=O)[O-] | inactive: -20% |
| COP1(=S)c2c(C)nn(CCC#N)c2N=C(c2ccc(F)cc2)N1C (stereo not drawn) | inactive: 0.723% |
| CCC(C)N(CC(C)C)C(=S)SC(NC(C)=O)C(Cl)(Cl)Cl (stereo not drawn) | inactive: -24.3% |
| CCCCOc1ccc(C(=O)NCC2(N3CCCCC3)CCCCC2)cc1OC | inactive: 13.2% |
| Cc1cc(SC(NC(=O)c2ccccc2)C(Cl)(Cl)Cl)nc(C(C)C)n1 (stereo not drawn) | inactive: -6.81% |
| CCOC(=O)Nc1ccc([As](=O)(O)O)c(O)c1 | inactive: -1.47% |
| CC1CCNP(=O)(N(CCCl)CCCl)O1 (stereo not drawn) | inactive: -7.21% |
| O=P(Nc1ccccn1)(c1cccc2ccccc12)c1cccc2ccccc12 | inactive: 7% |
| Cc1cc(SC(NC=O)C(Cl)(Cl)Cl)ncn1 (stereo not drawn) | inactive: -1.3% |
| O=[N+]([O-])c1ccc(Nc2ccc(Oc3ccc([N+](=O)[O-])cc3[N+](=O)[O-])cc2)c([N+](=O)[O-])c1 | inactive: 6.75% |
| CCOC(=O)Nc1cccc([As](=O)(O)O)c1 | inactive: 2.01% |
| Cc1ccc(OP(=O)(Nc2ccc([N+](=O)[O-])cn2)Oc2ccc(C)cc2)cc1 | inactive: -13% |
| Cc1ccc2nc3c(c(C)c2c1)CC(C(Cl)Cl)S3 (stereo not drawn) | inactive: 8.17% |

| SMILES | activation |
| --- | --- |
| C[As](=O)(O)c1cccc(C(=O)O)c1 | inactive: 5.65% |
| O=[As](O)(c1ccc(O)cc1)c1ccccc1O | inactive: 12.7% |
| O=[N+]([O-])c1ccc(-c2cc([N+](=O)[O-])c(O)c([N+](=O)[O-])c2)cc1 | inactive: -1.52% |
| COc1cc(C(=O)NCC2(N3CCOCC3)CCCCC2)ccc1OCC(C)C | inactive: 10.7% |
| CC(C)NC(=O)NP(=O)(Oc1ccccc1)Oc1ccccc1 | inactive: 6.99% |
| CCN(CC)C(=S)SC(NC=O)C(Cl)(Cl)Cl (stereo not drawn) | inactive: -37% |
| O=C(OC1CN2CCC1CC2)c1cccc2[nH]cnc12 (stereo not drawn) | inactive: -10.9% |
| O=[N+]([O-])c1cc([N+](=O)[O-])c(-c2ccn[nH]2)s1 | inactive: -72.2% |
| COC(=O)C1(C)COP(=O)(N2CCCCCC2)OC1 (stereo not drawn) | inactive: -2.22% |
| CC(C)c1ccc(OP(=O)(Nc2ccccn2)Oc2ccccc2F)cc1 (stereo not drawn) | inactive: -0.856% |
| O=P1(N(CCCl)CCCl)Nc2ccccc2N1 | inactive: -0.27% |
| O=P1(N(CCCl)CCCl)OCCCN1CCCl (stereo not drawn) | inactive: 0.005% |
| COc1ccc2nc(NP(=O)(c3ccccc3)c3ccccc3)sc2c1 | inactive: -0.201% |
| COc1cc(I)ccc1[As](=O)(O)O | inactive: 7.7% |
| Cc1c2c(nc3ccccc13)SC(C(Cl)Cl)C2 (stereo not drawn) | inactive: 8.27% |
| O=C(OC1CN2CCC1CC2)C12CC3CC(CC(C3)C1)C2 (stereo not drawn) | inactive: 9.14% |
| Cc1cc(=O)[nH]c(N[N+](=O)[O-])n1 | inactive: 15% |
| O=[N+]([O-])c1cc(Oc2ccc([N+](=O)[O-])cc2C(F)(F)F)cc([N+](=O)[O-])c1 | inactive: -16.9% |
| COc1ccc(N/C(=N/P(=O)(N2CCOCC2)N2CCOCC2)N2CCOCC2)cc1 | inactive: 1.62% |
